Patent US20260382533A1, “OCULAR DRUG DELIVERY” (published 2026)

Legend:
[1] = tested on: corneal wounds; details: eye drops; cited from earlier work
[2] = tested on: human corneal fibroblast (hCF) cells; assay: MTT cell viability, human corneal fibroblasts
Method: The inventors evaluated the antifibrotic theramem safety in vitro with human corneal epithelial (hCEC) and human corneal fibroblast (hCF) cells. […] However, treatment with three and four theramems corresponding to a higher drug concentration (9 and 12 μg of NIN) caused a decrease in the number of live cells. The cytotoxic effect was more pronounced in hCF cell cultures.
Evaluation of Nin-theramem toxicity in vitro: Potential cell toxicity of the NIN-theramem was studied using human corneal epithelial cells (hCEC) and human corneal fibroblast (hCF) cells. NIN-theramems were cut into 2 mm diameter and placed in each well of a flat bottom well plate to test the cell toxicity effect of the 3D-bioprinted Theramems. The cell lines were incubated with 1, 2, 3 and 4 NIN-theramems with 3 μg, 6 μg, 9 μg and 12 μg drug respectively. The hCEC and hCF cells were added to the wells with or without the theramems at a seeding density of 10×10^3 cells per well. The cells were kept in an incubation chamber at 37 °C and 5% CO2 throughout the study. After 48 hours the cell viability was measured against cells without treatment by MTT assay using a plate reader (CLARIOstar BMG LABTECH GmbH, Germany).

[3] = tested on: human corneal keratocytes; assay: TGF-β induced corneal keratocyte to myofibroblast differentiation in vitro (α-SMA staining); details: TGF-β (10 ng/ml) then NIN (10 μg), 72 h; vs TGF-β only
Text: FIGS. 7A-7H. NIN regulated corneal keratocyte to myofibroblast differentiation. […] Mouse corneal sections stained with α-SMA for fibroblast and myofibroblast density: Healthy (FIG. 7D); PBS treated (control) (FIG. 7E); and NIN-theramem treated corneas (FIG. 7F). […] Scale bar: 100 μm. Mean differences of the groups were considered significant at **P<0.01.
To determine the effect of NIN on regulating the TGF-β induced corneal keratocyte (CKC) to myofibroblast (MFB) differentiation, the inventors treated CKC with TGF-β (10 ng/ml) followed by NIN (10 μg) for 72 hours. […] The inventors further characterized the CKC to MFB differentiation in vivo in a mouse OB model. To evaluate the antifibrotic efficacy of the NIN-theramem, the OB mice were treated with NIN-theramems on alternate days for 14 days. […] In this study, we quantified 3 subsets of fibroblasts: α-SMA positive myofibroblasts associated with corneal haze and scar formation, S100 positive fibroblasts that promote angiogenesis, and SCA-1 positive fibroblasts associated with progenitor mesenchymal stromal cells. […]
Evaluation of NIN-Theramem ability to regulate corneal scarring in vitro: The ability of NIN-theramem to regulate corneal scarring was evaluated by determining the effect of NIN on modulating TGF-β induced transition of corneal keratocyte (CKC) to myofibroblasts. […]

[4] = tested on: fibroblasts; details: multiple resident fibroblast populations; cited from earlier work
[5] = tested on: platelet-derived growth factor (PDGF) receptors; details: cited from earlier work
[6] = tested on: fibroblast growth factor (FGF) receptors; details: cited from earlier work
[7] = tested on: vascular endothelial growth factor (VEGF) receptors; details: cited from earlier work

C[C@]12C=CC(=O)C=C1CC[C@@H]1[C@@H]2[C@@H](O)C[C@@]2(C)[C@H]1CC[C@]2(O)C(=O)CO
Effect on wound healing process [1]: delay the wound healing process | Prevention of corneal scarring [1]: ineffective in preventing corneal scarring

COC(=O)c1ccc2c(c1)NC(=O)/C2=C(\Nc1ccc(N(C)C(=O)CN2CCN(C)CC2)cc1)c1ccccc1
Decrease in live hCF cells ([2]; 12 μg NIN, 48 h): approximately 50% | Cytotoxic effect at higher NIN concentration ([2]; hCF, "29 μg" as printed): cytotoxic effect | Effect on live hCF cells ([2]; up to 6 μg NIN): negligible effect on live hCF cells | Safely tolerated NIN amount in hCF cells ([2]; up to, 48 h): Up to 6 μg | α-SMA staining of TGF-β treated keratocytes [3]: did not exhibit α-SMA antibody staining | Fibroblast proliferation and myofibroblast trans-differentiation [4]: inhibits fibroblast proliferation and the myofibroblast (MFB) trans-differentiation | Activity on PDGF receptors [5]: known modulatory activity | Activity on FGF receptors [6]: known modulatory activity | Activity on VEGF receptors [7]: known modulatory activity

CC(=O)[C@@]1(O)CC[C@H]2[C@@H]3C[C@H](C)C4=CC(=O)C=C[C@]4(C)[C@@]3(F)[C@@H](O)C[C@@]21C
Effect on wound healing process [1]: delay the wound healing process | Prevention of corneal scarring [1]: ineffective in preventing corneal scarring

C[C@@H]1C[C@H]2[C@@H]3CCC4=CC(=O)C=C[C@]4(C)[C@@]3(F)[C@@H](O)C[C@]2(C)[C@@]1(O)C(=O)CO
Effect on wound healing process [1]: delay the wound healing process | Prevention of corneal scarring [1]: ineffective in preventing corneal scarring
